ChEMBL document CHEMBL2429821, “A Casein kinase 1/Checkpoint kinase 1 pyrazolo-pyridine protein kinase inhibitor as novel activator of the p53 pathway” (Bioorg Med Chem Lett, 2013)

Target: 3-phosphoinositide-dependent protein kinase 1 (Homo sapiens) (UniProt O15530)
Assay: Inhibition of human PDK1 assessed as residual activity at 25 uM relative to control

SMILES: COc1cc(OC)c(C=C2C(=O)Nc3ccccc32)c(OC)c1
- Activity: 89%
